Measured values reported in PubChem BioAssay (NCI).
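Cells were grown in 96-well plates and exposed to each compound for 48 hours at five concentrations; endpoints were interpolated linearly between bracketing concentrations, or set to the highest concentration if not reached. GI50 = concentration required for 50% inhibition of growth. TGI: total growth inhibition.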

Columns and labels:
Assay in all cases: NCI anticancer screen, dose series, 48 h
[1] = system: UACC-257 melanoma
[2] = system: NCI-H23 lung
[3] = system: ACHN renal
[4] = system: NCI-H460 lung
[5] = system: SK-MEL-28 melanoma
[6] = system: 786-0 renal
[7] = system: MCF7 breast
[8] = system: OVCAR-3 ovarian
[9] = system: TK-10 renal
[10] = system: OVCAR-8 ovarian
[11] = system: SNB-75 CNS
[12] = system: NCI-H322M lung
[13] = system: HCC-2998 colon
[14] = system: U251 CNS
[15] = system: SK-OV-3 ovarian
[16] = system: HT29 colon
[17] = system: K-562 leukemia
[18] = system: RXF 393 renal
[19] = system: UO-31 renal
[20] = system: SF-539 CNS
[21] = system: HOP-92 NSCLC
[22] = system: HOP-62 NSCLC
[23] = system: MDA-MB-231 breast
[24] = system: SW-620 colon
[25] = system: CCRF-CEM leukemia
[26] = system: SK-MEL-5 melanoma
[27] = system: M14 melanoma
[28] = system: HCT-116 colon
[29] = system: HS 578T breast
[30] = system: HL-60(TB) leukemia
[31] = system: KM12 colon
[32] = system: NCI-H226 lung
[33] = system: SF-295 CNS
[34] = system: NCI/ADR-RES ovarian
[35] = system: IGROV1 ovarian
[36] = system: NCI-H522 lung
[37] = system: UACC-62 melanoma
[38] = system: OVCAR-4 ovarian
[39] = system: SF-268 CNS
[40] = system: MDA-MB-435
[41] = system: DU-145 prostate
[42] = system: OVCAR-5 ovarian
[43] = system: MALME-3M melanoma
[44] = system: BT-549 breast
[45] = system: RPMI-8226 leukemia
[46] = system: SNB-19 CNS
[47] = system: CAKI-1 renal
[48] = system: EKVX NSCLC
[49] = system: A498 renal
[50] = system: SN12C renal
[51] = system: COLO 205 colon
[52] = system: T-47D breast
[53] = system: A549 NSCLC
[54] = system: MOLT-4 leukemia
[55] = system: PC-3 prostate
[56] = system: SR leukemia
[57] = system: LOX IMVI melanoma
[58] = system: HCT-15 colon

`CC(=O)OCC(CS[As](C)C)OC(C)=O` (stereo unspecified) was tested, and the GI50 [1] was 654 nM, the TGI [1] was 27500 nM and the GI50 [2] was 28.5 nM. It also gave a TGI [2] of 115 nM, a GI50 [3] of 226 nM and a TGI [3] of 1860 nM. The GI50 [4] was 3250 nM, the TGI [4] was 27100 nM and the GI50 [5] was 1240 nM. For the same compound, the TGI [5] was 21500 nM, the GI50 [6] was 300 nM and the TGI [6] was 1460 nM. It also gave a GI50 [7] of 1320 nM, a TGI [7] of 11900 nM and a GI50 [8] of 48.5 nM. The TGI [8] was 233 nM, the GI50 [9] was 200 nM and the TGI [9] was 2000 nM. The GI50 [10] was 1900 nM, the TGI [10] was 17800 nM and the GI50 [11] was 5530 nM. It also gave a TGI [11] of 16400 nM, a GI50 [12] of 5330 nM and a TGI [12] of 14300 nM. The GI50 [13] was 129 nM, the TGI [13] was 293 nM and the GI50 [14] was 2320 nM. The TGI [14] was 12800 nM, the GI50 [15] was 303 nM and the TGI [15] was 1650 nM. It also gave a GI50 [16] of 981 nM, a TGI [16] greater than 100000 nM and a GI50 [17] of 644 nM. For the same compound, the TGI [17] was 70400 nM, the GI50 [18] was 651 nM and the TGI [18] was 5070 nM. The GI50 [19] was 862 nM, the TGI [19] was 52000 nM and the GI50 [20] was 460 nM. It also gave a TGI [20] of 5280 nM, a GI50 [21] of 79.8 nM and a TGI [21] of 522 nM. The GI50 [22] was 3520 nM, the TGI [22] was 11900 nM and the GI50 [23] was 513 nM. For the same compound, the TGI [23] was 3090 nM, the GI50 [24] was 541 nM and the TGI [24] was greater than 100000 nM. The GI50 [25] was 131 nM, the TGI [25] was 5970 nM and the GI50 [26] was 1590 nM. For the same compound, the TGI [26] was 4910 nM, the GI50 [27] was 70.7 nM and the TGI [27] was 1110 nM. It also gave a GI50 [28] of 605 nM, a TGI [28] of 1890 nM and a GI50 [29] of 1260 nM. It also gave a TGI [29] of 18300 nM, a GI50 [30] of 115 nM and a TGI [30] of 1130 nM. For the same compound, the GI50 [31] was 1990 nM, the TGI [31] was 9210 nM and the GI50 [32] was 1600 nM. For the same compound, the TGI [32] was 9310 nM, the GI50 [33] was 1870 nM and the TGI [33] was 6710 nM. The GI50 [34] was 68 nM, the TGI [34] was 427 nM and the GI50 [35] was 3010 nM. The TGI [35] was greater than 100000 nM, the GI50 [36] was 323 nM and the TGI [36] was 13000 nM. The GI50 [37] was 1570 nM, the TGI [37] was 14600 nM and the GI50 [38] was 346 nM. For the same compound, the TGI [38] was 3480 nM, the GI50 [39] was 1290 nM and the TGI [39] was 11200 nM. It also gave a GI50 [40] of 71 nM, a TGI [40] of 400 nM and a GI50 [41] of 424 nM. It also gave a TGI [41] of 22000 nM, a GI50 [42] of 234 nM and a TGI [42] of 694 nM. For the same compound, the GI50 [43] was 49.6 nM, the TGI [43] was 266 nM and the GI50 [44] was 344 nM. The TGI [44] was 3100 nM, the GI50 [45] was 160 nM and the TGI [45] was 489 nM. It also gave a GI50 [46] of 6160 nM, a TGI [46] of 27800 nM and a GI50 [47] of 17.2 nM. The TGI [47] was 60.8 nM, the GI50 [48] was 4020 nM and the TGI [48] was 12000 nM. The GI50 [49] was 5940 nM, the TGI [49] was 21400 nM and the GI50 [50] was 251 nM. For the same compound, the TGI [50] was 1160 nM, the GI50 [51] was 209 nM and the TGI [51] was 1530 nM. The GI50 [52] was 560 nM, the TGI [52] was 49500 nM and the GI50 [53] was 1790 nM. The TGI [53] was 19900 nM, the GI50 [54] was 126 nM and the TGI [54] was 4090 nM. It also gave a GI50 [55] of 379 nM, a TGI [55] of 4410 nM and a GI50 [56] of 227 nM. It also gave a TGI [56] of 1440 nM, a GI50 [57] of 664 nM and a TGI [57] of 3650 nM. It also gave a GI50 [58] of 116 nM and a TGI [58] of 7010 nM.
